Assay results: US20230017712A1, “SUSTAINED RELEASE DRUG DELIVERY DEVICE” (OAK CREST INSTITUTE OF SCIENCE, priority 2019, published 2023)

[1] = BSA 30% w/w paste with monoolein

bovine serum albumin [BSA]
time to release BSA payload (50% w/w BSA with D-(+)-trehalose 45% and L-histidine hydrochloride 5%): ≤ 2 days | release from the implants over 28 d (100% BSA powder, ePTFE 0.84 g cm^−3): did not appreciably release | release profile [1]: released linearly from the implant over 8 d | slope (release rate), simple linear regression [1]: 1.7 mg/day
